From patent publication US12478617B2, “Lipidated peptide inhibitors of interleukin-23 receptor” (JANSSEN BIOTECH, INC., priority 2021, dated 2025)

Biological target: T1, IL-23R (Homo sapiens, UniProt Q5VWK5)
T1 construct: HEK293 cells containing IL-23R, IL-12RP31 and a firefly luciferase reporter gene driven by a STAT-inducible promoter (Promega); host or cells: HEK293
T1 sequence (Q5VWK5 24-629): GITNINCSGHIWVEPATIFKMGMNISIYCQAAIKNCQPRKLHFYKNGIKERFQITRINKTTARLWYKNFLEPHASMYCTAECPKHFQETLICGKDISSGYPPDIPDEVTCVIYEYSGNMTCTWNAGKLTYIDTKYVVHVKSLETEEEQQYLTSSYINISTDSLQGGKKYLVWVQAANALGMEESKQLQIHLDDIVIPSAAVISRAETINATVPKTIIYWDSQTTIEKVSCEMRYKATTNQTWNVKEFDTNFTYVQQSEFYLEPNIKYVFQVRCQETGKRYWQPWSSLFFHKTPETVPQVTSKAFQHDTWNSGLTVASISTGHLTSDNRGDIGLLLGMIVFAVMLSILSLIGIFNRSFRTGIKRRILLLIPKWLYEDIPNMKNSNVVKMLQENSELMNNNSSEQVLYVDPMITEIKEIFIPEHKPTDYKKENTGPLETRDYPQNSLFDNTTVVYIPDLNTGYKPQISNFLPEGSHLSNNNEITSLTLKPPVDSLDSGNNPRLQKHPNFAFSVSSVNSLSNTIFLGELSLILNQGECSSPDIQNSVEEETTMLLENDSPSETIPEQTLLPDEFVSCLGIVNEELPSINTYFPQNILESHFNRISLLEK
Test: IL23R Reporter Assay
Format: cell-based
Conditions: HEK293 cells containing IL-23R, IL-12Rβ1 and STAT-inducible firefly luciferase reporter, 10 ng/mL IL-23 (EC90), 5 h at 37° C.
Excerpt: IL-23 binding to IL-23 receptors results in the activation of the Signal Transducer and Activator of Transcription 3 (STAT3) by phosphorylation and downstream signaling events. Accordingly. the ability of the inhibitors described herein to block IL-23 action can be assessed by monitoring the status of STAT3 activation in response to IL-23. This may be accomplished in reporter cell assays or in intact cells such as peripheral blood mononuclear cells (PBMCs).
Compounds were serially diluted in 100% (v/v) DMSO) and plated using an Echo acoustic dispenser (Labcyte) into 1536-well non-treated black assay plates (Corning #9146). 3 µL of HEK293 cells containing IL-23R, IL-12RP31 and a firefly luciferase reporter gene driven by a STAT-inducible promoter (Promega) were added to the plates (4000 cells/well), followed by 3 μL of 10 ng/mL IL-23 (equivalent to EC90 concentration). After 5 h at 37° C., 5% CO2, 95% relative humidity, cells were placed at 20° C. and treated with BioGlo reagent (Promega) according to the Manufacturer's instructions. Luminescence was measured on a Pherastar FSX (BMG LabTech). The data, provided in Tables 5a and 5b, were normalized to IL-23 treatment (0% inhibition) and 30 μM of control inhibitor (100% inhibition), and IC50 values were determined using a 4-parameter Hill equation.

Compound	IC50 (read-out: IC50) [nM]	IC50 [nM]
CC(=O)NCCCC[C@@H]1NC(=O)[C@H](Cc2c[nH]c3c(C)cccc23)NC(=O)[C@H]([C@@H](C)O)NC(=O)[C@H](CCCCNC(=O)COCCOCCNC(=O)COCCOCCNC(=O)[C@H]2CCCN2C(=O)[C@H]2CCCN2C(=O)[C@H]2CCCN2C(=O)CC[C@H](NC(=O)CCCCCCCCCCCCCCCCC(=O)O)C(=O)O)NC(=O)[C@@H](NC(=O)[C@@H](CCCNC(=N)N)NC(C)=O)C(C)(C)SSC(C)(C)[C@@H](C(=O)N[C@@H](Cc2ccc(OCCN)cc2)C(=O)N[C@@H](Cc2ccc3ccccc3c2)C(=O)NC2(C(=O)N[C@@H](CCCCNC(C)=O)C(=O)N[C@@H](CC(N)=O)C(=O)N[C@@H](Cc3cccnc3)C(=O)N(C)CC(N)=O)CCOCC2)NC1=O [Example 100, MeCO-r-Pen*-K(PEG2PEG2pppgEC18OH)-T-7MeW-K(Ac)-Pen*-AEF-2Nal-THP-K(Ac)-N-3Pya-Sar-CONH2]	0.11	
CC(=O)NCCCC[C@@H]1NC(=O)[C@H](Cc2c[nH]c3c(C)cccc23)NC(=O)[C@H]([C@@H](C)O)NC(=O)[C@H](CC(N)=O)NC(=O)[C@@H](NC(C)=O)C(C)(C)SSC(C)(C)[C@@H](C(=O)N[C@@H](Cc2ccc(OCCN)cc2)C(=O)N[C@@H](Cc2ccc3ccccc3c2)C(=O)NC2(C(=O)N[C@@H](CCCCNC(=O)COCCOCCNC(=O)COCCOCCNC(=O)[C@H]3CCCN3C(=O)CC[C@H](NC(=O)CCCCCCCCCCCCCCCCC(=O)O)C(=O)O)C(=O)N[C@@H](CC(N)=O)C(=O)N[C@@H](Cc3cccnc3)C(=O)N(C)CC(N)=O)CCOCC2)NC1=O [Example 106, MeCO-Pen*-N-T-7MeW-K(Ac)-Pen*-AEF-2Nal-THP-K(PEG2PEG2pgEC18OH)-N-3Pya-Sar-CONH2]	0.11	
CC(=O)NCCCC[C@@H]1NC(=O)[C@H](Cc2c[nH]c3c(C)cccc23)NC(=O)[C@H]([C@@H](C)O)NC(=O)[C@H](CC(N)=O)NC(=O)[C@@H](NC(C)=O)C(C)(C)SSC(C)(C)[C@@H](C(=O)N[C@@H](Cc2ccc(OCCN)cc2)C(=O)N[C@@H](Cc2ccc3ccccc3c2)C(=O)NC2(C(=O)N[C@@H](CCCCNC(=O)COCCOCCNC(=O)C[N+](C)(C)CCNC(=O)COCCOCCNC(=O)CC[C@H](NC(=O)CCCCCCCCCCCCCCCCC(=O)O)C(=O)O)C(=O)N[C@@H](CC(N)=O)C(=O)N[C@@H](Cc3cccnc3)C(=O)N(C)CC(N)=O)CCOCC2)NC1=O [Example 119, MeCO-Pen*-N-T-7MeW-K(Ac)-Pen*-AEF-2Nal-THP-K(PEG2SP6PEG2gEC18OH)-N-3Pya-Sar-CONH2]	0.058	
MeCO-K(GolAC16)-Pen*-N-T-7MeW-K(Ac)-Pen*-AEF-2Nal-THP-K(Ac)-N-3Pya-Sar-CONH2 [Example 135]		0.016
MeCO-K(PEG2 SP6 PEG2 gE C18OH)-Pen*-N-T-7MeW-K(Ac)-Pen*-AEF-2Nal-THP-K(Ac)-N-3Pya-Sar-CONH2 [Example 131]		0.021
MeCO-K(PEG2PEG2 C18OH)-Pen*-N-T-7MeW-K(Ac)-Pen*-AEF-2Nal-THP-K(Ac)-N-3Pya-Sar-CONH2 [Example 62]		0.054
MeCO-K(PEG2PEG2 GolAC18OH)-Pen*-N-T-7MeW-K(Ac)-Pen*-AEF-2Nal-THP-K(Ac)-N-3Pya-Sar-CONH2 [Example 138]		0.039
MeCO-K(PEG2PEG2 gE C18OH (C)-Pen*-N-T-7MeW-K(Ac)-Pen*-AEF-2Nal-THP-K(Ac)-N-3Pya-Sar-CONH2 [Example 142]		0.0092
MeCO-K(PEG2PEG2 gE C18OH(c)-Pen*-N-T-7MeW-K(Ac)-Pen*-AEF-2Nal-THP-K(Ac)-N-3Pya-Sar-CONH2 [Example 139]		0.0079
MeCO-K(PEG2PEG2 gE SP6 C18OH)-Pen*-N-T-7MeW-K(Ac)-Pen*-AEF-2Nal-THP-K(Ac)-N-3Pya-Sar-CONH2 [Example 130]		0.02
MeCO-K(PEG2PEG2C18GolB)-Pen*-N-T-7MeW-K(Ac)-Pen*-AEF-2Nal-THP-K(Ac)-N-3Pya-Sar-CONH2 [Example 140]		0.012
MeCO-K(PEG2PEG2PPPgEC18OH)-Pen*-N-T-7MeW-K(Ac)-Pen*-AEF-2Nal-THP-K(Ac)-N-3Pya-Sar-CONH2 [Example 103]		0.066
MeCO-K(PEG2PEG2PgEC18OH)-Pen*-N-T-7MeW-K(Ac)-Pen*-AEF-2Nal-THP-K(Ac)-N-3Pya-Sar-CONH2 [Example 101]		0.066
MeCO-K(PEG2PEG2TrxgEC18OH)-Pen*-N-T-7MeW-K(Ac)-Pen*-AEF-2Nal-THP-K(Ac)-N-3Pya-Sar-CONH2 [Example 109]		0.056
MeCO-K(PEG2PEG2gEC10OH)-Pen*-N-T-7MeW-K(Ac)-Pen*-AEF-2Nal-THP-K(gEC18)-N-3Pya-Sar-CONH2 [Example 127]		0.17
MeCO-K(PEG2PEG2gEC16)-Pen*-N-T-7MeW-K(Ac)-Pen*-AEF-2Nal-THP-K(Ac)-N-3Pya-Sar-CONH2 [Example 81]		0.012
MeCO-K(PEG2PEG2gEC16OH)-Pen*-K(PEG2PEG2gEC16OH)-T-7MeW-K(Ac)-Pen*-AEF-2Nal-THP-K(Ac)-N-3Pya-Sar-CONH2 [Example 76]		0.18
MeCO-K(PEG2PEG2gEC16OH)-Pen*-N-T-7MeW-K(Ac)-Pen*-AEF-2Nal-THP-K(Ac)-N-3Pya-Sar-CONH2 [Example 25]		0.0078

Compound	IC50 (read-out: IC50) [nM]	IC50 [nM]
MeCO-K(PEG2PEG2gEC16OH)-Pen*-N-T-7MeW-K(Ac)-Pen*-AEF-2Nal-THP-K(gEC18)-N-3Pya-Sar-CONH2 [Example 120]		0.38
MeCO-K(PEG2PEG2gEC18)-Pen*-N-T-7MeW-K(Ac)-Pen*-AEF-2Nal-THP-K(Ac)-N-3Pya-Sar-CONH2 [Example 82]		0.013
MeCO-K(PEG2PEG2gEC18OH)-Pen*-K(PEG2PEG2gEC18OH)-T-7MeW-K(Ac)-Pen*-AEF-2Nal-THP-K(Ac)-N-3Pya-Sar-CONH2 [Example 77]		0.3
MeCO-K(PEG2PEG2gEC18OH)-Pen*-N-T-7MeW-K(Ac)-Pen*-AEF-2Nal-THP-K(gEC18)-N-3Pya-Sar-CONH2 [Example 121]		0.9
MeCO-K(PEG2PEG2gEC18OH)-Pen*-N-T-7MeW-K(Ac)-Pen*-AEF-2Nal-THP-K(gEc16)-N-3Pya-Sar-CONH2 [Example 98]		1.24
MeCO-K(PEG2PEG2gEC20OH)-Pen*-K(PEG2PEG2gEC20OH)-T-7MeW-K(Ac)-Pen*-AEF-2Nal-THP-K(Ac)-N-3Pya-Sar-CONH2 [Example 78]		0.23
MeCO-K(PEG2PEG2gETrxC18OH)-Pen*-N-T-7MeW-K(Ac)-Pen*-AEF-2Nal-THP-K(Ac)-N-3Pya-Sar-CONH2 [Example 71]		0.081
MeCO-K(PEG2PEG2gETrxC20OH)-Pen*-N-T-7MeW-K(Ac)-Pen*-AEF-2Nal-THP-K(Ac)-N-3Pya-Sar-CONH2 [Example 72]		0.11
MeCO-K(PEG2PEG2gEmXOH)-Pen*-N-T-7MeW-K(Ac)-Pen*-AEF-2Nal-THP-K(Ac)-N-3Pya-Sar-CONH2 [Example 110]		0.0096
MeCO-K(PEG2PEG2gEmXOH)-Pen*-N-T-7MeW-K(Ac)-Pen*-AEF-2Nal-THP-K(gEC16)-N-3Pya-Sar-CONH2 [Example 113]		1.11
MeCO-K(PEG2PEG2gEpXOH)-Pen*-N-T-K(Ac)-Pen*-AEF-2Nal-THP-K(PEG2PEG2gEpXOH)-N-3Pya-Sar-CONH2 [Example 112]		0.018
MeCO-K(PEG2PEG2pgEC18OH)-Pen*-N-T-7MeW-K(Ac)-Pen*-AEF-2Nal-THP-K(Ac)-N-3Pya-Sar-CONH2 [Example 102]		0.053
MeCO-K(PEG2PEG2pppgEC18OH)-Pen*-N-T-7MeW-K(Ac)-Pen*-AEF-2Nal-THP-K(Ac)-N-3Pya-Sar-CONH2 [Example 104]		0.066
MeCO-K(PEG2gEC18OH)-Pen*-N-T-7MeW-K(Ac)-Pen*-AEF-2Nal-THP-K(Ac)-N-3Pya-N(4AmBenzyl)Gly-CONH2 [Example 86]		0.061
MeCO-K(PEG2gEC18OH)-Pen*-N-T-7MeW-K(Ac)-Pen*-AEF-2Nal-THP-K(Ac)-N-3Pya-Sar-CONH2 [Example 49]		0.046
MeCO-K(SP6 PEG2PEG2gE C18OH)-Pen*-N-T-7MeW-K(Ac)-Pen*-AEF-2Nal-THP-K(Ac)-N-3Pya-Sar-CONH2 [Example 132]		0.031
MeCO-K(gEC16)-Pen*-K(gEC16)-T-7MeW-K(Ac)-Pen*-AEF-2Nal-THP-K(Ac)-N-3Pya-Sar-CONH2 [Example 79]		0.38

Where two headings read alike, the source gives them in different places.
